Test results taken from ChEMBL document CHEMBL1141995, “N-i-Propoxy-N-biphenylsulfonylaminobutylhydroxamic acids as potent and selective inhibitors of MMP-2 and MT1-MMP” (Bioorg Med Chem Lett, 2005).

Target: T1, Interstitial collagenase (Homo sapiens, UniProt P03956)
T1 sequence (P03956 whole entry): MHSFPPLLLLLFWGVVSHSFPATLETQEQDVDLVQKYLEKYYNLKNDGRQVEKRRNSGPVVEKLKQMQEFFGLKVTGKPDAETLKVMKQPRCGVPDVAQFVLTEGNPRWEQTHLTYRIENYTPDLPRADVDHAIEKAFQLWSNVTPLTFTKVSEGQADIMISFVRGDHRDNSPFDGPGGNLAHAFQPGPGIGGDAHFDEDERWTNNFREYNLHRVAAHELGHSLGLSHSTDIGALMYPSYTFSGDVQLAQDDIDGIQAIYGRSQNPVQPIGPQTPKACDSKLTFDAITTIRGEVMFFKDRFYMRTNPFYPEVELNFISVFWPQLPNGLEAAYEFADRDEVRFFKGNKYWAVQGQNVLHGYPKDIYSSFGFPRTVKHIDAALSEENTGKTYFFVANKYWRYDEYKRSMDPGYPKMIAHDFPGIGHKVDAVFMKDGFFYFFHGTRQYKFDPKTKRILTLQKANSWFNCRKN
Test: Inhibition of human matrix metalloprotease-1

`COc1ccc(S(=O)(=O)N(Cc2cccnc2)[C@@H](C(=O)NO)C(C)C)cc1` [CGS-27023A] showed an IC50 of 55 nM.
